Columns and labels:
DuP 996 binding protein = assay: Specificity of the DuP 996 binding protein (displacement of tritiated DuP 996 by pharmacological standards); design: species or system rat; conditions: receptor and ion channel ligands and neuropeptides against 10 nM tritiated DuP 996
ACh release = assay: Neurotransmitter release assay: stimulated ACh release from brain slices; design: species or system rat; conditions: concentration to enhance stimulated release of ACh by 100% (2-fold) over control, from dose response curves
Method: Male Wistar rats weighing 175-200 g were euthanatized and the brains were dissected out immediately. Slices (0.3 mm thick) from the parietal cortex were prepared manually by using a recessed Lucite® guide. Slices (1.5 mm thick) from the hippocampus and the caudate nucleus were prepared by using a slotted brain holder. All slices were subsequently cut into 0.25×0.25 mm squares with a McIlwain tissue chopper.
Labeling of transmitter stores in slices was prepared by the following methods. For ACh release, slices (approximately 100 mg wet weight) were incubated in 10 ml Krebs-Ringer (KR) medium containing (mM): NaCl(116), KCl(3), CaCl2 (1.3), MgCl2 (1.2), KH2 PO4 (1.2), Na2 SO4 (1.2), NaHCO3 (25) and glucose(11), to which 10 μCi ^3 H-choline (specific activity approx. 80 Ci/mmol: NEN) and 10 nmol unlabeled choline had been added to give a final concentration of 10^-6 M. Incubation was carried out for 30 min at 37° C. under a steady flow of 95% O2 /5% CO2. Under these conditions, part of the radioactive choline taken up is converted into radioactive ACh by cholinergic nerve endings, stored in synaptic vesicles, and released upon depolarization by high-K^+ -containing medium [Molenaar et al., 1973a]. […]
After 15 min washout of non-specifically bound radioactivity during superfusion, the collection of fractions of 4 min (1.2 ml) each was started. […]

## thyrotropin
DuP 996 binding protein
  ability to displace tritiated DuP 996 binding from the binding protein: None of these pharmacological standards was able to displace

## O=C1N(c2ccccc2)c2ccccc2C1(Cc1ccncc1)Cc1ccncc1 [Compound 7, 3,3-Bis(4-pyridinylmethyl)-1-phenylindolin-2-one]
ACh release
  ACh Release EC100: 1,500 nM
